## Measured affinities in a library of Ab-14 heavy chain variants

Source: Li et al. 2023 (doi:10.1038/s41467-023-39022-2), MIT Lincoln Laboratory and A-Alpha Bio; data file from the FLAb repository.

The target is the same throughout: PDVDLGDISGINAS, from the HR2 region of SARS-CoV-2 spike.

Parent: Ab-14, a human scFv built as VH, a 15-residue (Gly4Ser)3 linker, VL. Only the CDRs of the heavy chain vary.
VH: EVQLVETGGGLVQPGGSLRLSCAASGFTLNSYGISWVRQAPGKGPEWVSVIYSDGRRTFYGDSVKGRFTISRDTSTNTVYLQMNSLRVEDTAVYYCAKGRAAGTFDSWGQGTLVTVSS
VL: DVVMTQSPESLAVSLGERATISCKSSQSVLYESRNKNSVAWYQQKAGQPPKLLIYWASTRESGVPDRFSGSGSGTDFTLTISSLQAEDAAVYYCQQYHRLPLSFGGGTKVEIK

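The parent was found by panning a naive human phage display library on the peptide. Designed CDR sequences, proposed from the first random library and measured here. Their group label is 14H_GP_HC (GP: Gaussian process model; HC: hill climbing; a sequence that several methods proposed may carry one label only). AlphaSeq pools MATa yeast showing the antibodies with MATalpha yeast showing the peptide. The frequency of each diploid, read from paired DNA barcodes, reflects how well the two displayed proteins bind. Read counts were normalised to the haploid input and turned into Kd by a linear fit to BCL2-family pairs of known affinity, for each replicate. There are six technical replicates.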

Changes read parent residue, position, new residue, counted from the first residue of the VH shown. Affinities are written as log10 Kd with Kd in nM; a lower number is a better binder. "ND" means that the variant was in the library but no mating with the target was seen in that replicate; the authors take this as a sign of poor binding, and no number exists.

| changes | replicates, log10 nM | signal with controls |
|---|---|---|
| N30K+G61V+R100K+A101L | ND / ND / ND / ND / ND / ND | 0/18 |
| F27N+S31E+G61T+A101H | ND / ND / 0.70 / ND / ND / 2.22 | 0/18 |
| S31E+G61K+A102G | ND / ND / ND / ND / 0.31 / 1.27 | 0/18 |
| G26D+G61S+R100Q+A101L | 2.88 / 1.27 / 1.38 / 0.95 / 1.40 / 1.87 | 0/18 |
| T28D+S31E+G61T | ND / ND / ND / ND / ND / ND | 0/18 |
| T28G+G61S+R100H | 0.46 / 0.29 / 0.72 / 0.14 / 0.35 / 0.21 | 0/18 |
| T28G+S31E+S107Q | 1.08 / 0.79 / 0.84 / 0.20 / 0.39 / 0.70 | 0/18 |
| N30D+A101E+S107Q | 1.04 / 0.25 / 0.20 / 0.89 / 0.58 / -0.03 | 0/18 |
| T28Q+S31D+G61I+S63R+R100K | ND / ND / ND / ND / ND / ND | 0/18 |
| T28D+T104A+D106Q | ND / ND / ND / ND / ND / ND | 0/18 |
| T28W+S31D+G61A+R100H+S107E | ND / 0.92 / 1.41 / 1.96 / 1.82 / 1.31 | 0/18 |
| S31R+G61S+R100T | 1.76 / 3.41 / ND / ND / ND / 1.72 | 0/18 |
| R56M+G61S+R100A+A101T | 1.06 / 1.12 / 1.56 / 0.79 / 0.62 / 1.08 | 0/18 |
| T28Q+S31E+G61T+R100Q+S107L | 0.13 / 0.22 / 0.22 / -0.07 / 0.17 / 0.49 | 0/18 |
| T28H+S31D+G61I+A101H | 1.85 / 1.72 / 1.59 / 2.08 / 1.48 / 1.69 | 0/18 |
| G26E+G61I+A101I | ND / ND / ND / ND / ND / ND | 0/18 |
| T28P+S31E+S53A+R100N | 1.08 / 1.07 / 1.65 / 1.11 / 1.36 / 1.15 | 1/18 (2.59) |
| S53A+A101I+D106K | 1.91 / 0.62 / 0.66 / 0.28 / 0.45 / 0.68 | 0/18 |
| T28D+D106Q | 0.26 / 0.08 / 0.46 / 0.53 / 0.04 / 0.19 | 1/18 (0.77) |
| G26K+S31D+G61I+A101C | ND / ND / ND / ND / ND / ND | 0/18 |
| T28W+S31E+G61H+S107K | ND / ND / ND / ND / ND / ND | 0/18 |
| T28H+S53A+F105N | ND / ND / ND / ND / ND / ND | 0/18 |
| T28S+S31D+G61A+S107E | 0.87 / -0.31 / 0.10 / 0.14 / -0.29 / 0.77 | 0/18 |
| G26F+N30E+S53A | ND / 0.85 / 0.81 / ND / ND / ND | 0/18 |
| S31E+A101M+S107N | 0.31 / 0.71 / 1.30 / 0.17 / 0.40 / 1.15 | 0/18 |
| S31E+G61M+A101E+S107V | 0.52 / 0.29 / 0.27 / 0.48 / 0.02 / 0.54 | 0/18 |
| S31E+G61E+S63D+A101T | 0.41 / 0.14 / 0.57 / 0.16 / 0.14 / 0.61 | 0/18 |
| S31D+G61K+D106E | 1.74 / 1.65 / ND / 2.30 / ND / 1.58 | 0/18 |
| T28D+G61D+G103V | ND / ND / 1.72 / ND / ND / ND | 0/18 |
| T28P+S31E+S53A+R100M | 0.49 / 0.03 / 0.16 / -0.05 / -0.06 / 0.06 | 0/18 |

4 of these entries, quoted again:

| changes | replicates, log10 nM | signal with controls |
|---|---|---|
| T28W+S31E+G61H+S107K | ND / ND / ND / ND / ND / ND | 0/18 |
| T28S+S31D+G61A+S107E | 0.87 / -0.31 / 0.10 / 0.14 / -0.29 / 0.77 | 0/18 |
| T28Q+S31D+G61I+S63R+R100K | ND / ND / ND / ND / ND / ND | 0/18 |
| S31E+A101M+S107N | 0.31 / 0.71 / 1.30 / 0.17 / 0.40 / 1.15 | 0/18 |

The parent sequence was in this pool as ten entries: three were never detected, three once, and four in most replicates, with averages from 0.34 to 2.37. A sequence measured in both rounds can read differently, since the two assays cover different ranges. Three control strains display no target. For all heavy chain designs, 1% of the pairings with them gave a signal, with a median of 2.08 and one signal in twenty below 0.84, so weak values seen in few replicates may be background. Also given: how often the same scFv was detected with the empty control strains, with their mean in brackets. The authors' rule: three or more of the six replicates give a measured affinity, fewer mean a poor binder.